What was measured:
[1] = tested on: T. cruzi (Sylvio X10/7A1 strain) intracellular amastigote (in Vero cells); assay type: cell-based; conditions: KRS1 OE
CYP3A4 = CYP3A4 (Homo sapiens, UniProt P08684); experiment: In vitro CYP inhibition, 3A4; assay type: in vitro ADME
Procedure: (§1) Compounds were screened for CYP inhibition activity using the protocol established by TCG Lifesciences (India). The activity of five CYP450 isoforms: 1A2; 2C9; 2D6, 3A4; and 2C19 was monitored in the presence of test or control (miconazole) compounds at 10 µM. Reactions were terminated after 10 min (30 min for CYP2C19) by the addition of acetonitrile, centrifuged and analysed via LC-MS/MS. […]

Sequences of proteins named here, by UniProt entry; tags and fusion partners are left off.
UniProt P08684, whole entry: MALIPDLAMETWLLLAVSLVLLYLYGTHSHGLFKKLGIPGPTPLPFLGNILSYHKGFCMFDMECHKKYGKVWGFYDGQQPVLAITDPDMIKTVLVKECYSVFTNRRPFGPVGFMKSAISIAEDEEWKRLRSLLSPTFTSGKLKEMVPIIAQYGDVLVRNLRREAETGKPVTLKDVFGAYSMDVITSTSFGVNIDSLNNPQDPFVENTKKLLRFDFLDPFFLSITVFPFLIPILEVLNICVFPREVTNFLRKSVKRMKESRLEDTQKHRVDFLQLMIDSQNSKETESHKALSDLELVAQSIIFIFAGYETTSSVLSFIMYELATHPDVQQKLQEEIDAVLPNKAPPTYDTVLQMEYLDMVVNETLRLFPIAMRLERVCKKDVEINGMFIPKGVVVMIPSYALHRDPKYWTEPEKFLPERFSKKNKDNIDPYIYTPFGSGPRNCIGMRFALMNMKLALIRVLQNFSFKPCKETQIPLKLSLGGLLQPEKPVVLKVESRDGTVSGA
UniProt P10635, whole entry: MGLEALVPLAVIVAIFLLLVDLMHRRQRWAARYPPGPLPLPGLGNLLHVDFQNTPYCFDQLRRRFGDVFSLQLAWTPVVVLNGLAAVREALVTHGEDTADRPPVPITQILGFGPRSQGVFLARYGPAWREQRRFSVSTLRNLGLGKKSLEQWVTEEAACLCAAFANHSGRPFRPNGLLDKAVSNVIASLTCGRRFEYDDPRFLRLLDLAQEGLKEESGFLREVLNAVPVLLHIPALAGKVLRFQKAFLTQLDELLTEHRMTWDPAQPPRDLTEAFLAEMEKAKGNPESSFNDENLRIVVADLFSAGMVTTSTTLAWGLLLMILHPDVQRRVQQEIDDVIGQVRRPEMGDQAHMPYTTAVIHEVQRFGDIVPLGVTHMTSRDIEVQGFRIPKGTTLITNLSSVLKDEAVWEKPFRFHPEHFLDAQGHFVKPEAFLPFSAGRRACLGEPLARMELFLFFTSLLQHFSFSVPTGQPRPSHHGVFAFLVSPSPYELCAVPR

[2] = tested on: Lysyl-tRNA synthetase 1 (KRS1); experiment: Isothermal proteome profiling (iTPP), TcKRS1; assay type: binding, T. cruzi; conditions: KRS1 (C4B63_45g239); lysate, compound at 10× EC50, 48°C
Procedure: (§2) T. cruzi epimastigote lysates were generated as previously described ([29]). Isothermal TPP assays were performed as previously described ([25]). […] Data processing and analyses were performed as previously described ([25]), except proteins were identified via searches against the T. cruzi Dm28C proteome (tritrypdb.org, version 49).

[3] = tested on: T. cruzi (Sylvio X10/7A1 strain) epimastigote; assay type: cell-based; conditions: KRS1 OE
T. b. brucei BSF = experiment: Drug sensitivity assay, T. b. brucei bloodstream forms; assay type: cell-based; conditions: KRS1 OE
[4] = tested on: T. cruzi epimastigote lysates; experiment: Isothermal proteome profiling (iTPP), other hit proteins; assay type: binding; conditions: 10× EC50, 48°C
Procedure: as §2

[5] = tested on: L. donovani (LdBOB) promastigote; experiment: Drug sensitivity assay, L. donovani promastigotes; assay type: cell-based; conditions: KRS1 OE
CYP2D6 = CYP2D6 (Homo sapiens, UniProt P10635); experiment: In vitro CYP inhibition, 2D6; assay type: in vitro ADME
Procedure: as §1

[6] = Conserved hypothetical protein (C4B63_49g169)
[7] = Small nuclear ribonucleoprotein Sm-E (C4B63_42g593)

## Cc1nc(N)c2c(F)c(F)c(NC3CCCC3)c(F)c2n1 [DMU371, N7-Cyclopentyl-5,6,8-trifluoro-2-methylquinazoline-4,7-diamine]
[1]
  Fold-shift (relative to WT): 4 fold
CYP3A4
  inhibition at 10 min, 10 µM: 13 ± 3%
[2]
  Abundance Log2 fold change Rep 1: 2.50
  Abundance Log2 fold change Rep 2: 2.97
[3]
  Fold-shift (relative to WT): 10 fold
T. b. brucei BSF
  Fold-shift (relative to WT): 7 fold
[4]; [6]
  Abundance Log2 fold change Rep 1: 2.05
  Abundance Log2 fold change Rep 2: 1.61
[4]; [7]
  Abundance Log2 fold change Rep 1: 3.04
  Abundance Log2 fold change Rep 2: 1.56
[5]
  Fold-shift (relative to WT): 4 fold
CYP2D6
  inhibition at 10 min, 10 µM: 6.3 ± 0.1%

Reference: PMC7617978, “Anti-trypanosomal quinazolines targeting lysyl-tRNA synthetases show partial efficacy in a mouse model of acute Chagas disease” (Science translational medicine, 2025)
